Ab-14 light chain CDR variants: yeast mating affinities

Values reported by Li et al. 2023, doi:10.1038/s41467-023-39022-2 (FLAb copy).

Antigen: PDVDLGDISGINAS, a 14-residue peptide of the SARS-CoV-2 spike HR2 region.

The variants keep the heavy chain, the linker and the frameworks of Ab-14 (scFv order VH, a 15-residue (Gly4Ser)3 linker, VL).
VH: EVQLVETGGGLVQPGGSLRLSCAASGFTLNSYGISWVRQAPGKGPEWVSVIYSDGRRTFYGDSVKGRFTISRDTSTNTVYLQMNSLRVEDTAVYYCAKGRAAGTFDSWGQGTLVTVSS
VL: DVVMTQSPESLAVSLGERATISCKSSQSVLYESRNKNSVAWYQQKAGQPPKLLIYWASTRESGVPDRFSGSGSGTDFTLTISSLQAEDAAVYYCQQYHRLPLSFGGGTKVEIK

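The parent was found by panning a naive human phage display library on the peptide. This is the validation round: designs drawn from the data on random variants, tested in the same kind of assay. Their group label is 14L_GP_HC (GP: Gaussian process model; HC: hill climbing; a sequence that several methods proposed may carry one label only). AlphaSeq pools MATa yeast showing the antibodies with MATalpha yeast showing the peptide. Pairs that bind mate more often; barcode pairs of the diploids are counted by sequencing. A regression on co-assayed BCL2-family reference pairs converts the normalised counts of each replicate to an apparent Kd. The assay was run in six technical replicates.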

Changes read parent residue, position, new residue, counted from the first residue of the VL shown.
Affinities are written as log10 Kd with Kd in nM; a lower number is a better binder.
Replicates are averaged; those with no signal do not enter the mean.
Where no diploid with the target was found in that replicate, the entry reads "nd": below detection, most likely a poor binder, though not proof of it.
Values of this round are not directly comparable with the first-round values of the same sequences.
The authors' rule: three or more of the six replicates give a measured affinity, fewer mean a poor binder.
Background: pairings of all light chain designs with three empty control strains gave a value in 4% of cases (median 2.64, 5th percentile 1.59). Values in that range, when seen in few replicates, are hard to tell from nonspecific mating. The control count says in how many pairings with the empty strains this scFv gave a signal, with their mean in brackets.

| # | changes | replicates, log10 nM | log10 Kd (nM), mean | control signals |
|---|---|---|---|---|
| 1 | K24H Y31M W56D | 0.35 / 0.27 / 0.25 / 0.15 / 0.37 / 1.22 | 0.43 | 0/18 |
| 2 | Q27W R34E W56H S62D | 0.83 / 0.61 / 0.17 / 0.77 / 0.65 / 0.65 | 0.61 | 1/18 (1.94) |
| 3 | S25Q R34V W56E | -0.23 / -0.33 / nd / -0.53 / 0.06 / 0.12 | -0.18 | 0/18 |
| 4 | L30D Y31N S33M W56D | 0.16 / 0.40 / 0.05 / -0.06 / 0.17 / 0.40 | 0.19 | 2/18 (2.44) |
| 5 | Q27G V29Q W56G P101T | -0.53 / 0.74 / -0.02 / -0.13 / -0.66 / -0.24 | -0.14 | 0/18 |
| 6 | L30K Y31M K36A W56D | 0.76 / 0.31 / 0.11 / 0.33 / 0.33 / 0.51 | 0.39 | 0/18 |
| 7 | S25M S26E S28G W56G T59C | -0.05 / -0.22 / -0.30 / -0.30 / -0.42 / -0.15 | -0.24 | 4/18 (2.85) |
| 8 | V29E Y31G W56D | 0.20 / -0.04 / 0.22 / 0.01 / 0.23 / 0.23 | 0.14 | 0/18 |
| 9 | V29F W56E Q96A | 1.08 / 0.99 / 1.42 / 1.32 / 1.22 / 2.00 | 1.34 | 2/18 (2.22) |
| 10 | Q27I V29Y Y31A K36E W56E S62Q | 0.67 / 0.72 / 0.63 / 1.39 / 0.76 / 1.25 | 0.90 | 0/18 |
| 11 | S25V R34G N35T W56N T59H | 0.97 / 0.24 / 1.38 / 0.52 / 0.98 / 0.99 | 0.84 | 2/18 (2.20) |
| 12 | K24H S25L Q27W S28V W56N S62E | 0.99 / 0.42 / 0.43 / 0.47 / 0.41 / 0.86 | 0.60 | 0/18 |
| 13 | Q27I V29E R34E W56E T59Q | 0.97 / 0.92 / 0.35 / 0.36 / 0.60 / 0.94 | 0.69 | 0/18 |
| 14 | K24H Q27P L30E W56N T59L | 0.69 / 0.47 / 0.74 / 0.71 / 0.89 / 0.60 | 0.68 | 0/18 |
| 15 | S28E L30K Y31F W56D | 0.74 / 0.41 / 0.50 / 0.02 / 0.51 / 0.59 | 0.46 | 0/18 |
| 16 | S25V S26L L30V S33Q W56H S62D | 0.39 / 0.38 / 0.37 / 0.32 / 0.41 / 0.32 | 0.36 | 2/18 (3.06) |
| 17 | S25F L30R N35T W56N | 0.60 / 0.12 / 0.08 / 0.51 / 0.03 / 0.37 | 0.28 | 0/18 |
| 18 | S25Q R34V W56D T59Q | -0.05 / -0.28 / -0.21 / -0.45 / -0.38 / -0.09 | -0.24 | 0/18 |
| 19 | S25Q L30D W56M | 1.35 / 1.26 / 1.15 / 0.76 / 1.02 / 1.22 | 1.12 | 1/18 (1.53) |
| 20 | Q27I V29Y Y31T R34M W56E | 0.39 / 0.37 / 0.15 / 0.42 / 0.15 / 0.49 | 0.33 | 0/18 |
| 21 | Q27W V29W W56G S62N | 0.00 / -0.14 / -0.03 / -0.41 / -0.30 / -0.01 | -0.15 | 0/18 |
| 22 | S25L S26P Q27N V29T N35Q W56Q | 0.02 / 0.11 / -0.06 / -0.15 / -0.30 / 0.24 | -0.02 | 0/18 |
| 23 | S25E Y31Q R34V W56D | 0.20 / 0.16 / 0.19 / -0.07 / -0.14 / 0.15 | 0.08 | 0/18 |
| 24 | Q27T R34N W56H S62D | 0.03 / 0.25 / 0.43 / 0.04 / 0.49 / 0.35 | 0.27 | 1/18 (2.02) |
| 25 | S25I S38A W56D Q96M R99W | 0.70 / 0.44 / 0.18 / 0.26 / 0.40 / 0.67 | 0.44 | 3/18 (2.46) |
| 26 | Q27I V29D W56E S62Q | 0.70 / 0.89 / 0.39 / 0.68 / 0.24 / 0.81 | 0.62 | 0/18 |
| 27 | S25F N35Q K36S W56N | 0.04 / -0.10 / -0.20 / -0.16 / -0.21 / 0.03 | -0.10 | 1/18 (3.01) |
| 28 | S26Q V29W W56G T59S | -0.69 / -0.65 / -0.64 / -0.53 / -0.76 / -0.45 | -0.62 | 0/18 |
| 29 | S25Q R34G W56D E61S | 0.04 / -0.10 / -0.04 / -0.27 / -0.21 / -0.22 | -0.13 | 1/18 (3.35) |
| 30 | S25V N35C W56D E61C | 0.42 / 0.40 / 0.35 / -0.04 / 0.38 / 0.37 | 0.31 | 1/18 (2.99) |
| 31 | S26G S28G Y31M K36W W56G | -0.14 / -0.26 / -0.18 / -0.47 / -0.09 / -0.33 | -0.24 | 0/18 |
| 32 | S25I S28E V29K W56D | -0.46 / -0.50 / -0.61 / -0.71 / -0.73 / -0.66 | -0.61 | 0/18 |
| 33 | Q27F V29Y W56E S103M | 0.86 / 1.09 / 0.77 / 0.90 / 1.02 / 0.77 | 0.90 | 0/18 |
| 34 | Q27I V29Y K36I W56E | 1.25 / 1.40 / 4.55 / 0.83 / 1.35 / 0.98 | 1.73 | 1/18 (3.39) |
| 35 | S26E V29Q L30E W56H S62D | 0.90 / nd / 1.78 / 0.92 / 0.48 / 0.60 | 0.93 | 0/18 |

Excerpt, the first 3 entries:

| changes | replicates, log10 nM | log10 Kd (nM), mean | control signals |
|---|---|---|---|
| K24H Y31M W56D | 0.35 / 0.27 / 0.25 / 0.15 / 0.37 / 1.22 | 0.43 | 0/18 |
| Q27W R34E W56H S62D | 0.83 / 0.61 / 0.17 / 0.77 / 0.65 / 0.65 | 0.61 | 1/18 (1.94) |
| S25Q R34V W56E | -0.23 / -0.33 / nd / -0.53 / 0.06 / 0.12 | -0.18 | 0/18 |